Literature values in patent publication US20190064129A1, “Systems And Methods To Determine Body Drug Concentration From An Oral Fluid” (Sterling Healthcare Opco, LLC, priority 2013, published 2019).

Details: absorption constant, referenced in literature; cited from earlier work

## COc1ccc2c3c1O[C@H]1C(=O)CC[C@@]4(O)[C@@H](C2)N(C)CC[C@]314 [Oxycodone]
  Ka: 3.5 h⁻¹
